The values below come from patent US20250304700A1, “ANTI-BLOOD DENDRITIC CELL ANTIGEN 2 ANTIBODIES AND USES THEREOF” (Biogen MA Inc., priority 2012, published 2025).

The test system of this data set is bulk polyclonal human IgG. Kind of data set: Cross-interaction chromatography (CIC). It counts as physicochemical. The source says: Cross-interaction chromatography (CIC) is a high throughput method for preliminary assessment of the stickiness of mAb candidates (Jacobs et al., Pharm Res., 27 (1): 65-71 (2010)). In this method, bulk polyclonal human IgG is chemically coupled to an NHS-activated chromatography resin.

In the case of “Herceptin: member of the control panel of mAbs in CIC [reference compound]”, the Rt-Test (IgG-derivatized column) came out at 9.5. Further, the “K′” value (higher K′ values may indicate lower solubility) came to 0.011. This substance also yielded a Rt-Blank (non-derivatized column) of 9.4.
